Where “and” joins values, the source holds several entries; their conditions need not be identical. Equal values may be shown once.
Legend:
Format in all cases: in vivo
Details in all cases: ANIT 50 mg/kg i.g.
[1] = test system: MDR1; test: Expression level of MDR1 in rat liver by UHPLC-MS/MS
Experimental: (§1) Male Sprague Dawley rats (230 ± 20 g, 6–8 weeks of age) were purchased from B&K Laboratory Animal, Corp. Ltd. (Shanghai, China) and fed in the Laboratory Animal Center of Shanghai University of Traditional Chinese Medicine. All rats were allowed to acclimatize for 3 days before experimentation. The rats were randomly divided into six groups (n = 5 for each group). […] Moreover, groups 1 and 2 were intragastrically treated with physiological saline (0.9%) at a dose of 1 mL/100 g. […] At the end of the experiment, all rats were euthanized by CO2 inhalation. The serum samples were stored at -70°C until analysis, and liver samples were isolated and stored at -70°C for further analysis, whereas the central part of the right large lobe of the liver was used for histological examination.
(§2) Biotransformation of xenobiotics and endogenous compounds is a crucial step in the absorption and elimination of potentially harmful substances from the human body, a process that could be affected by the levels of pharmacokinetic enzymes and transporter proteins. […]
(§3) Total membrane protein was isolated (in triplicate) from liver tissue according to the Native Membrane Protein Extraction Kit protocol. Subsequently, protein concentrations were determined by applying the BCA Protein Assay Kit. […]

[2] = test system: OATP1A4; test: Expression level of OATP1A4 in rat liver by UHPLC-MS/MS
[3] = test system: UGT1A1; test: Expression level of UGT1A1 in rat liver by UHPLC-MS/MS
Experimental: as §1, §2, §3

[4] = test system: OATP1A2; test: Expression level of OATP1A2 in rat liver by UHPLC-MS/MS
[5] = test system: OATP1A1; test: Expression level of OATP1A1 in rat liver by UHPLC-MS/MS
[6] = test system: MRP2; test: Expression level of MRP2 in rat liver by UHPLC-MS/MS
[7] = test system: OCT1; test: Expression level of OCT1 in rat liver by UHPLC-MS/MS
Experimental: as §1, §2, §3

[8] = test system: NTCP; test: Expression level of NTCP in rat liver by UHPLC-MS/MS
[9] = test system: BSEP; test: Expression level of BSEP in rat liver by UHPLC-MS/MS
Experimental: as §1, §2, §3

Question: `S=C=Nc1cccc2ccccc12` [ANIT, alpha-naphthylisothiocyanate] was tested. Which “MDR1 expression level decreased by, model group compared with control group” value [1] did it give?
Answer: The value was 79.1%.

Question: And the “OATP1A4 expression level decreased by, model group compared with control group” value [2]?
Answer: Its value is 75.1%.

Question: And the “UGT1A1 expression level decreased by, model group compared with control group” value [3]?
Answer: The value was 68.1%.

Question: And the “OATP1A2 expression level decreased by, model group compared with control group” value [4]?
Answer: Its value is 44.4%.

Question: What about the “OATP1A1 expression level decreased by, model group compared with control group” value [5] of the same compound?
Answer: The value was 40.8%.

Question: What about the “MRP2 expression level reduced by, model group compared with control group” value [6] of the same compound?
Answer: The value was 57.0%.

Question: What about the “OCT1 expression level decreased by, model group compared with control group” value [7] of the same compound?
Answer: Its value is 52.0% and 76.7%.

Question: And the “NTCP expression level decreased by, model group compared with control group” value [8]?
Answer: The value was 76.7%.

Question: What about the “BSEP expression level reduced by, model group compared with control group” value [9] of the same compound?
Answer: Its value is 37.1%.
